Assay results as given in patent publication US10363320B2, “Conjugate comprising oxyntomodulin and an immunoglobulin fragment, and use thereof” (HANMI SCIENCE CO., LTD, priority 2011, dated 2019).
pEC50: −log10 of the molar value.

Sequences of proteins named here, by UniProt entry; tags and fusion partners are left off. Residues count along the entry.
UniProt P43220, 24-463: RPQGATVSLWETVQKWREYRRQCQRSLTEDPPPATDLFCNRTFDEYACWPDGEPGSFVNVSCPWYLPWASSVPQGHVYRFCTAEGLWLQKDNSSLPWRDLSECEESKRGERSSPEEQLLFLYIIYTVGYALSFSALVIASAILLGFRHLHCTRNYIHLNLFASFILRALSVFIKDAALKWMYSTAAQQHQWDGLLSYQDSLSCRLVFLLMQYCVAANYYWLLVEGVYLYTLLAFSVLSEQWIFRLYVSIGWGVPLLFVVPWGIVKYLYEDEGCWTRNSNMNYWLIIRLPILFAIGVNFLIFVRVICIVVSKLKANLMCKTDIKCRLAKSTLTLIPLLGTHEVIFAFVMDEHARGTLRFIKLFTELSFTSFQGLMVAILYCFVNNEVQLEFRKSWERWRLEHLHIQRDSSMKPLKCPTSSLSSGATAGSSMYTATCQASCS

Target: T1, human GLP-1 receptor (Homo sapiens, UniProt P43220)
T1 construct: host or cells: CHO DG44
Test: cAMP response in CHO cell line expressing human GLP-1 receptor (CHO/GLP-1R)
Format: cell-based
Conditions: read-out: EC50 CHO/GLP-1R, Table 3, Fc conjugates, GLP-1, glucagon, 37° C. for 1 hour
Experimental: The PCR product was cloned into the known animal cell expression vector x0GC/dhfr to prepare a recombinant vector x0GC/GLP1R.
CHO DG44 cell line cultured in DMEM/F12 (10% FBS) medium was transfected with the recombinant vector x0GC/GLP1R using LIPOFECTAMINE® (INVITROGEN®, USA), and cultured in a selection medium containing 1 mg/mL G418 and 10 nM methotraxate.
The cultured cells were washed with KRB buffer and suspended in 40 ml of KRB buffer containing 1 mM IBMX, and left at room temperature for 5 minutes. […] Then, 20 mL of cell lysis buffer was added for cell lysis, and the cell lysates were applied to a cAMP assay kit (Molecular Device, USA) to measure cAMP concentrations. EC50 values were calculated therefrom, and compared to each other.
Each of the cultured transformants was washed with KRB buffer and suspended in 40 ml of KRB buffer containing 1 mM IBMX, and left at room temperature for 5 minutes. […] Then, 20 ml of cell lysis buffer was added for cell lysis, and the cell lysates were applied to a cAMP assay kit (Molecular Device, USA) to measure cAMP concentrations using a Victor (PERKIN ELMER®, USA). EC50 values were calculated therefrom, and compared to each other (Table 3).

**Q.** How did the pEC50 turn out when Glucagon [reference compound] was run?
**A.** < 6.00
